Literature values as cited in article PMC2361662 (British Journal of Cancer, 2005).

Target: T1, EGFRvIII (Homo sapiens, UniProt P00533, DELINS30-297G)
T1 construct: expressed in transfected cells; host or cells: NR6M (derivative of NR6 fibroblasts)
Set-up: method as in Montgomery, 2002
Conditions: dimers had increased phosphotyrosine load; ref Montgomery, 2002; cited from earlier work

COc1cc2ncnc(Nc3cccc(Cl)c3)c2cc1OC [AG1478]
Concentration range inducing dimers of EGFRvIII: 0.001 to 0.01 µM
